Source: US12625141B2, “Fluorescent dye, preparation method and uses thereof” (FLUORESCENCE DIAGNOSIS (SHANGHAI) BIOTECH COMPANY LTD., priority 2019, dated 2026)
pKd: −log10 of the molar value.

Columns and labels:
[1] = system: F30-8Pepper-5 RNA aptamer

Compound: CN(CCO)c1ccc(/C=C(\C#N)c2ccc(C#N)cc2)cn1 [III-8]
- Em/nm ([1]; after binding to RNA aptamer): 508 nm
- Ex/nm ([1]; after binding to RNA aptamer): 458 nm
- ε ([1]; after binding to RNA aptamer): 42500 M⁻¹ cm⁻¹
- QY (−) ([1]; after binding to RNA aptamer, relative method with Rhodamine 6G as the standard): 0.30
- pKd ([1]; binding to RNA aptamer): 7.57
- Activation Multiple ([1]; fluorescence activation after binding to RNA aptamer): 9091
- Fluorescence of cells not expressing the RNA aptamer (RNA aptamer in cells; cells not expressing the RNA aptamer (FIG. 17B)): no fluorescence
- Fluorescence of cells transcribing the RNA aptamer (RNA aptamer in cells; cells transcribing the RNA aptamer (FIG. 17A)): bright fluorescence
